# From ChEMBL document CHEMBL5505970 (J Med Chem, 2024)
# What was measured:
# Homo sapiens [1] = species: Homo sapiens; test: Selectivity ratio of IC50 for inhibition of mTOR in human LoVo cells using pP70S6K (Thr389) as substrate to IC50 for inhibition of ATR in gemcitabine-stimulated human LoVo cells using CHK1 (Ser345) as substrate; assay type: cell-based
# Homo sapiens [2] = species: Homo sapiens; test: Selectivity ratio of IC50 for inhibition of mTOR in human HeLa S3 cells to IC50 for inhibition of ATR in human HeLa S3 cells; assay type: cell-based; conditions: time 1.0 hrs
structure (smiles),measurement,setting,value
C[C@@H]1COCCN1c1cc([C@]2(O)C[C@H]3CC[C@@H](C2)O3)c2cnn(-c3cc[nH]n3)c2n1 [CAMONSERTIB],Ratio IC50,Homo sapiens [1],30
same,Ratio IC50,Homo sapiens [2],28
